Measured values: US20100190751A1, “NOVEL COMBINATION OF NERAMEXANE FOR TREATMENT OF NERORDEGENERATIE DISORDERS” (MERZ PHARMA GmbH & CO. KGaA, priority 2007, published 2010)

Legend:
[1] = system: amytrophic lateral sclerosis (ALS); settings: background statement; cited from earlier work
[2] = system: SOD1(G93A) transgenic mouse model of ALS; settings: both gender

Structure (SMILES): Nc1nc2ccc(OC(F)(F)F)cc2s1 [Riluzole, 2-amino-6-trifluromethoxybenzothiazole]
- Improvement of survival time as compared to placebo [1]: up to 90 days
- Disease Endstage - Survival, Median age [2]: 129.0 days
- Disease Endstage - Survival, Mean age ([2]; treatment from day 45, same doses as Table 1): 130.8 days
- Disease Endstage - Survival, Difference compared to control ([2]; versus vehicle control mean […]): 1.5 days
